Measured values published in US11945807B2, “Splicing modulator antibody-drug conjugates and methods of use” (EISAI R&D MANAGEMENT CO., LTD., priority 2018, dated 2024).

Test system: N87 cells
Test: Cell viability CellTiter-Glo, N87
Type: cell-based, human

In the case of “TDM1: "treated intravenously with vehicle or 10 mg/kg trastuzumab, TDM1, or an exemplary HER2-ADC" [reference compound]”, the “Rmin % NCI-N87 (in vitro)” value is reported as −37%.
